Values of other authors as cited in publication PMC7187754, “Identification of the Molecular Determinants Involved in Antimicrobial Activity of Pseudodesmin A, a Cyclic Lipopeptide From the Viscosin Group” (Frontiers in Microbiology, 2020).

Test system: selection of Gram-negative bacteria
Conditions: ref Sinnaeve et al., 2009b; cited from earlier work

Pseudodesmin A
activity against Gram-negative bacteria: did not show activity
